Data on one protein can be found in ChEMBL document CHEMBL4387703, “Lead optimization and biological evaluation of fragment-based cN-II inhibitors” (Eur J Med Chem, 2019).

Common to all, as to conditions: Homo sapiens
Compound in data set [1]: CCOP(=O)(O)Cn1cnc(-c2cccc(-c3cccc(C(=O)Nc4ncnc5nc[nH]c45)c3)c2)c1
The data set can be described thus: (§1) Mixed type inhibition of recombinant cN-II (unknown origin) assessed as substrate Km using varying level of IMP as substrate by HPLC method based Lineweaver-Burk plot analysis. In short, it runs like this: (§2)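 Enzyme, alone or with compound, was mixed with IMP (0.2 to 3 mM) under stirring at 37 °C in imidazole pH 6.5/NaCl/MgCl2 buffer. Samples were taken every 7 s and quenched with 10% perchloric acid. IMP and inosine were quantified by SAX HPLC in 10 mM ammonium phosphate pH 5.5. Data were fitted to competitive, non-competitive, uncompetitive or mixed inhibition equations.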

Compound in data set [2]: O=C(O)Cn1cnc2c(NC(=O)c3cccc(-c4ccccc4)c3)ncnc21
Described as §1. In short, it runs like this: as §2

Compound in data set [3]: O=C(Nc1ncnc2[nH]cnc12)c1cccc(-c2ccccc2)c1
The description is as §1. An outline of the steps:
as §2

Compound in data set [4]: CCOP(=O)(O)Cn1cnc(-c2cccc(-c3cccc(C(=O)Nc4ncnc5nc[nH]c45)c3)c2)c1
The experiment in a line: (§3) Uncompetitive inhibition of recombinant cN-II (unknown origin) assessed as substrate Km using varying level of IMP as substrate by HPLC method based Lineweaver-Burk plot analysis. In short, it runs like this:
as §2

Compound in data set [5]: O=C(O)Cn1cnc2c(NC(=O)c3cccc(-c4ccccc4)c3)ncnc21
The description is as §3. An outline of the steps:
as §2

Compound in data set [6]: O=C(Nc1ncnc2[nH]cnc12)c1cccc(-c2ccccc2)c1
The data set is described as §3. An outline of the steps:
as §2

Compound in data set [7]: CCOP(=O)(O)Cn1cnc(-c2cccc(-c3cccc(C(=O)Nc4ncnc5nc[nH]c45)c3)c2)c1
The data set can be described thus: (§4) Noncompetitive inhibition of recombinant cN-II (unknown origin) assessed as substrate Kcat using varying level of IMP as substrate by HPLC method based Lineweaver-Burk plot analysis. An outline of the steps: as §2

Compound in data set [8]: O=C(O)Cn1cnc2c(NC(=O)c3cccc(-c4ccccc4)c3)ncnc21
Described as §4. An outline of the steps: as §2

Compound in data set [9]: O=C(Nc1ncnc2[nH]cnc12)c1cccc(-c2ccccc2)c1
The data set is described as §4. In short, it runs like this:
as §2

Compound in data set [10]: CCOP(=O)(O)Cn1cnc(-c2cccc(-c3cccc(C(=O)Nc4ncnc5nc[nH]c45)c3)c2)c1
The experiment in a line: (§5) Competitive inhibition of recombinant cN-II (unknown origin) using varying level of IMP as substrate assessed as substrate Km by HPLC method based Lineweaver-Burk plot analysis. An outline of the steps:
as §2

Compound in data set [11]: O=C(O)Cn1cnc2c(NC(=O)c3cccc(-c4ccccc4)c3)ncnc21
The data set is described as §5. In short, it runs like this: as §2

Compound in data set [12]: O=C(Nc1ncnc2[nH]cnc12)c1cccc(-c2ccccc2)c1
Described as §5. An outline of the steps:
as §2

Compound in data set [13]: CCOP(=O)(O)Cn1cnc(-c2cccc(-c3cccc(C(=O)Nc4ncnc5nc[nH]c45)c3)c2)c1
The experiment in a line: (§6) Noncompetitive inhibition of recombinant cN-II (unknown origin) assessed as substrate Km using varying level of IMP as substrate by HPLC method based Lineweaver-Burk plot analysis. An outline of the steps: as §2

Compound in data set [14]: O=C(O)Cn1cnc2c(NC(=O)c3cccc(-c4ccccc4)c3)ncnc21
The description is as §6. In short, it runs like this: as §2

Compound in data set [15]: O=C(Nc1ncnc2[nH]cnc12)c1cccc(-c2ccccc2)c1
Described as §6. In short, it runs like this: as §2

Compound in data set [16]: CCOP(=O)(O)Cn1cnc(-c2cccc(-c3cccc(C(=O)Nc4ncnc5nc[nH]c45)c3)c2)c1
The data set can be described thus: (§7) Uncompetitive inhibition of recombinant cN-II (unknown origin) assessed as substrate Kcat using varying level of IMP as substrate by HPLC method based Lineweaver-Burk plot analysis. An outline of the steps:
as §2

Compound in data set [17]: O=C(O)Cn1cnc2c(NC(=O)c3cccc(-c4ccccc4)c3)ncnc21
The data set is described as §7. In short, it runs like this:
as §2

Compound in data set [18]: O=C(Nc1ncnc2[nH]cnc12)c1cccc(-c2ccccc2)c1
The description is as §7. In short, it runs like this:
as §2

Compound in data set [19]: CCOP(=O)(O)Cn1cnc(-c2cccc(-c3cccc(C(=O)Nc4ncnc5nc[nH]c45)c3)c2)c1
The data set can be described thus: (§8) Competitive inhibition of recombinant cN-II (unknown origin) using varying level of IMP as substrate assessed as substrate Kcat by HPLC method based Lineweaver-Burk plot analysis. An outline of the steps:
as §2

Compound in data set [20]: O=C(O)Cn1cnc2c(NC(=O)c3cccc(-c4ccccc4)c3)ncnc21
The description is as §8. In short, it runs like this:
as §2

Compound in data set [21]: O=C(Nc1ncnc2[nH]cnc12)c1cccc(-c2ccccc2)c1
Described as §8. In short, it runs like this: as §2

Compound in data set [22]: CCOP(=O)(O)Cn1cnc(-c2cccc(-c3cccc(C(=O)Nc4ncnc5nc[nH]c45)c3)c2)c1
The experiment in a line: (§9) Mixed type inhibition of recombinant cN-II (unknown origin) assessed as substrate Kcat using varying level of IMP as substrate by HPLC method based Lineweaver-Burk plot analysis. In short, it runs like this:
as §2

Compound in data set [23]: O=C(O)Cn1cnc2c(NC(=O)c3cccc(-c4ccccc4)c3)ncnc21
The description is as §9. An outline of the steps: as §2

Compound in data set [24]: O=C(Nc1ncnc2[nH]cnc12)c1cccc(-c2ccccc2)c1
The data set is described as §9. An outline of the steps: as §2

B1: 5'-nucleotidase (Homo sapiens), P21589 (protein)
chain: MCPRAARAPATLLLALGAVLWPAAGAWELTILHTNDVHSRLEQTSEDSSKCVNASRCMGGVARLFTKVQQIRRAEPNVLLLDAGDQYQGTIWFTVYKGAEVAHFMNALRYDAMALGNHEFDNGVEGLIEPLLKEAKFPILSANIKAKGPLASQISGLYLPYKVLPVGDEVVGIVGYTSKETPFLSNPGTNLVFEDEITALQPEVDKLKTLNVNKIIALGHSGFEMDKLIAQKVRGVDVVVGGHSNTFLYTGNPPSKEVPAGKYPFIVTSDDGRKVPVVQAYAFGKYLGYLKIEFDERGNVISSHGNPILLNSSIPEDPSIKADINKWRIKLDNYSTQELGKTIVYLDGSSQSCRFRECNMGNLICDAMINNNLRHTDEMFWNHVSMCILNGGGIRSPIDERNNGTITWENLAAVLPFGGTFDLVQLKGSTLKKAFEHSVHRYGQSTGEFLQVGGIHVVYDLSRKPGDRVVKLDVLCTKCRVPSYDPLKMDEVYKVILPNFLANGGDGFQMIKDELLRHDSGDQDINVVSTYISKMKVIYPAVEGRIKFSTGSHCHGSFSLIFLSLWAVIFVLYQ
A word on the Km: it is the concentration of substrate that gives half-maximal velocity. The term kcat denotes the number of substrate molecules converted per active site and unit of time at saturation. Turning to B1, the Km in data set [1] was 639 µM; in data set [2], 821 µM; in [3], 506 µM; in data set [4] it was 982 µM; in data set [5] it was 1150 µM; in data set [6] it was 657 µM. The Michaelis-Menten constant (Km) in [10] is 651 µM; in [11] it was 790 µM; in data set [12] it was 448 µM; in data set [13] it was 870 µM; in data set [14] it was 999 µM; in data set [15], 584 µM. Further, the kcat in data set [7] is 49.7 s⁻¹; in data set [8], 47.4 s⁻¹; in data set [9] it was 51.4 s⁻¹; in data set [16], 51.2 s⁻¹; in data set [17] it was 49.4 s⁻¹; in data set [18], 52.9 s⁻¹. Also, the catalytic constant (kcat) in data set [19] came out at 45.1 s⁻¹; in [20], 43.3 s⁻¹; in data set [21], 47.3 s⁻¹; in data set [22], 44.8 s⁻¹; in data set [23] it was 44.1 s⁻¹; in data set [24], 49.3 s⁻¹.
